# Yeast mating assay 1: variants of the scFv Ab-14

Data: MIT Lincoln Laboratory AlphaSeq set, Engelhart et al. 2022, doi:10.1038/s41597-022-01779-4, as distributed in FLAb.

All variants were tested on one target, the spike HR2 peptide PDVDLGDISGINAS (SARS-CoV-2).

Parent: Ab-14, a human scFv built as VH, a (GGGGS)3 linker, VL. Only the CDRs of the heavy chain vary.
VH: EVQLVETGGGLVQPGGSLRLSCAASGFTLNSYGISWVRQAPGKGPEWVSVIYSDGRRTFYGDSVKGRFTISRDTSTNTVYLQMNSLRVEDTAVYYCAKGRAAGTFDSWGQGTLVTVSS
VL: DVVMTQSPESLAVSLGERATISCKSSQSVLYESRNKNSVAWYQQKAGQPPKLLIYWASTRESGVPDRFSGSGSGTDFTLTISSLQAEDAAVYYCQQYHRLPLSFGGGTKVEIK

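The parent was found by panning a naive human phage display library on the peptide. In library AAYL49, one, two or three CDR residues were substituted; doubles and triples were drawn at random. The assay is AlphaSeq: two haploid yeast populations carry antibody and antigen on their surface. Mating (16 h, 30 °C) was followed by selection of diploids and sequencing of their barcodes. Read counts were normalised to the haploid input and turned into Kd by a linear fit to BCL2-family pairs of known affinity, for each replicate. Each pool was mated in three replicate cultures.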

Each variant is given by its three heavy chain CDRs, as the data file delimits them; those of the parent are GFTLNSYGIS, VIYSDGRRTFYGDSVK, GRAAGTFDS.
Scale: log10 of Kd in nM, estimated from mating counts; low values are strong binders.
A pair that was not seen in that replicate is written "n.d."; this usually means weak binding, but a binder can also be missed.

CDR-H1 | CDR-H2 | CDR-H3 | log10 Kd (nM) by replicate | signal with controls
GFTLNSMGIS | VIYSDGRRTFIGDSVK | GRAAGRFDS | 4.50 / 5.52 / 4.88 | 4/9 (4.02)
GFTSNSYGWS | VIYSDGRHTFYGDSVK | GRAAGTFDS | n.d. / 3.02 / n.d. | 3/9 (3.61)
GNTCNSYGIS | VIYSDGRRTFYGRSVK | GRAAGTFDS | n.d. / n.d. / 3.81 | 1/9 (3.86)
GFTLWSYGIS | VIYSDGRRTFYGDGVI | GRAAGTFDS | n.d. / 2.40 / n.d. | 2/9 (4.40)
GFTLNDYGIS | VIYSDGRRTFYGDSAK | DRAAGTFDS | n.d. / n.d. / n.d. | 2/9 (2.90)
GLTLNSYGIS | VIYSDGRRTFYGDSVK | QRAAGTFDS | n.d. / n.d. / n.d. | 0/9
GFTLNSYGIS | PIYSDGRRTFYGDSVK | NRKAGTFDS | n.d. / n.d. / n.d. | 0/9
GFTLNSYGIS | VAYSDGRRTFIGDSVK | GRSAGTFDS | n.d. / n.d. / n.d. | 3/9 (3.49)
GFTLNSYGSS | LIYSDGRRTFYGDSVK | GRAAGTEDS | n.d. / n.d. / n.d. | 0/9
GFTLNHYGIS | VIYSDGRPTFAGDSVK | GRAAGTFDS | n.d. / n.d. / n.d. | 0/9
GFTLNSYGIS | VIYSDGRRTFYGDSLK | GRAAGSFDS | 4.75 / 3.99 / n.d. | 5/9 (4.56)
GFELNSYEIS | VIYSDGRRTFYGDSVK | GRAAITFDS | 5.77 / n.d. / n.d. | 2/9 (4.47)
GFTLNSYGIF | VIYSDGRRTFYGDSVC | VRAAGTFDS | 4.63 / 3.95 / n.d. | 4/9 (4.58)
GFTLNSYGIS | VIYKDGRRTFYGDMVK | GRAAGTFDS | n.d. / n.d. / n.d. | 2/9 (3.52)
NFTLNSYGIM | VIYSDGRRTFYGDSVK | GRWAGTFDS | n.d. / n.d. / n.d. | 1/9 (4.14)
GFTLNSYGIS | HIYSDGRRTFYGDSVK | GRAAGTFDS | 3.58 / 4.88 / n.d. | 5/9 (4.28)
GFTLNSYGIS | VIYSDPRRTFYGDSEK | GRAAGTFLS | n.d. / n.d. / n.d. | 1/9 (4.42)
GFTLNSYGIS | VIYSDRRRTFKGDSVK | GGAAGTFDS | n.d. / n.d. / n.d. | 0/9
GFTRNSYWIS | VIYSDGRRTLYGDSVK | GRAAGTFDS | n.d. / n.d. / n.d. | 1/9 (3.19)
GFTLDSYGTS | VIYSDGRRSFYGDSVK | GRAAGTFDS | n.d. / 3.81 / 4.16 | 0/9
GFTLNSYGIS | VIFSDGRRTFYGVDVK | GRAAGTFDS | n.d. / 2.64 / n.d. | 0/9
GFTLNSYGIF | QIYSDGRRTFYGDSVK | GRAAGYFDS | n.d. / n.d. / n.d. | 3/9 (3.69)
GFTLNSPGIS | VIYSDGRRTFYPDSVK | GYAAGTFDS | n.d. / n.d. / n.d. | 2/9 (2.76)
GWTLNSYGIS | CIYSDGRRTFYGDSTK | GRAAGTFDS | n.d. / n.d. / n.d. | 0/9
GFTLNSYIWS | VIYSDGRRTFYGDSVK | GRAAMTFDS | n.d. / n.d. / n.d. | 4/9 (4.09)
GFTLNSYGIS | VIYSDGRRTFSGDSVK | GRAAGTFDS | 2.73 / 3.14 / 2.67 | 2/9 (4.56)
GFTLNDYGIM | VIISDGRRTFYGDSVK | GRAAGTFDS | 3.98 / n.d. / 6.08 | 2/9 (3.82)
KFTLQSYGIS | VIYTDGRRTFYGDSVK | GRAAGTFDS | 3.54 / 1.70 / 2.23 | 0/9
GFTLNSYGIS | VIYSDGRRTFYDDSYK | GRAAGTFYS | 3.69 / n.d. / n.d. | 0/9
GFTLRSYGIS | VIYSWGRRTFYGDSVK | GRAAGTFDE | n.d. / n.d. / n.d. | 0/9
GFTLNSYGIS | VRYNDGRRTDYGDSVK | GRAAGTFDS | 3.24 / n.d. / 4.66 | 0/9
GFTLNSYGIS | VIYSDGRRTQPGDSVK | GRAAGTMDS | 4.60 / n.d. / n.d. | 2/9 (4.35)
GFTLNSHGIS | VIYSDGRRTFYGDSGK | GRAAGTFDS | n.d. / n.d. / n.d. | 0/9
GFTDNSYGIS | VIYSDGRRTFYGSSVK | GRAAGTFFS | n.d. / n.d. / n.d. | 1/9 (4.35)
GFTLNSYGIS | VIYSDRRRTFYGDVEK | GRAAGTFDS | n.d. / 3.46 / n.d. | 3/9 (4.40)
GFTLNSYGIS | VIYSDGRRTFYGDSVE | GIAAGTLDS | n.d. / n.d. / n.d. | 0/9
GFTLNSYGIS | VIYSDGRRTFFGKSVK | GRAAGTFDT | n.d. / 1.55 / 3.55 | 1/9 (4.17)
GFTLNHYGIS | VIYSEGRRTFYGDSVK | GYAAGTFDS | n.d. / n.d. / 4.09 | 1/9 (3.47)
GCCLNSYGIS | VIYSDGRRTFKGDSVK | GRAAGTFDS | n.d. / n.d. / n.d. | 0/9
GFTLNSYGIS | VIYSDGWRTKYGDSVK | GRAAGTFDE | n.d. / n.d. / n.d. | 0/9
TFTANSFGIS | VIYSDGRRTFYGDSVK | GRAAGTFDS | n.d. / n.d. / n.d. | 0/9
GFTLNSYGIS | VKYSDGRRTSYGDSVK | GRAADTFDS | n.d. / n.d. / n.d. | 0/9
GFTLNSYGIS | SIYSDGRRTFYLDSVK | GRDAGTFDS | 3.93 / n.d. / n.d. | 2/9 (3.49)
AFTLNSYGIS | VIYSDGRRTFYGDSVK | GRAAGTLDS | 3.66 / 3.51 / 3.58 | 2/9 (2.88)
GFTLNSYGIS | VIYSDRRRTFYGDSVK | GRAAGAFDS | n.d. / 4.37 / n.d. | 1/9 (3.86)
GFVLNSYGIV | VIYSDGRRTFYGDSVK | GRAAGTFDS | 2.68 / n.d. / n.d. | 0/9

Empty control strains, which show no peptide, gave a signal in 15% of pairings with library AAYL49; the median was 4.06 and 95% of these signals were weaker than 2.83. No background was subtracted. Also given: how often the same scFv was detected with the empty control strains, with their mean in brackets.